# Yeast mating assay B: variants of the scFv Ab-14

From the AlphaSeq antibody data of Li et al. 2023 (doi:10.1038/s41467-023-39022-2), copy in the FLAb collection.

Target: peptide PDVDLGDISGINAS, taken from heptad repeat 2 (HR2) of SARS-CoV-2 spike.

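Phage display of a naive human antibody library on the peptide gave the parent. These sequences belong to a second round, designed from the earlier measurements on random variants of the parent. Several design methods are mixed in this list. In AlphaSeq, yeast of one mating type display the scFv and yeast of the other type display the target. After mating in shaken culture at 30 °C for 16 h, diploids were selected and their barcode pairs sequenced. The ratio of observed to expected reads was calibrated, replicate by replicate, on BCL2-family standards whose Kd was known from biolayer interferometry. Each pool was mated in six replicate cultures.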

Parent scFv Ab-14: VH joined to VL by a (GGGGS)3 linker. Changes lie in the heavy chain CDRs alone.
VH: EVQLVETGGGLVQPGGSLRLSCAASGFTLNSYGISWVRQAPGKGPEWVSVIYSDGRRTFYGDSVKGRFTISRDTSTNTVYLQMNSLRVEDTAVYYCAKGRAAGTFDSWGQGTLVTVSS
VL: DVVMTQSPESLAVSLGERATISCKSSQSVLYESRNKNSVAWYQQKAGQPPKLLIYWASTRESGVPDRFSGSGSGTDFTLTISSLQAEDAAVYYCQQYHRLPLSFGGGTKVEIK

The parent's heavy chain CDRs are GFTLNSYGIS, VIYSDGRRTFYGDSVK, GRAAGTFDS; each variant's own CDRs replace them letter for letter.
Variants here have at most six changes.
Values are apparent Kd, the geometric mean of the replicates that gave a signal; lower means stronger binding.
A pair that was not seen in any replicate is written "no signal"; this usually means weak binding, but a binder can also be missed.

With GFTLNSYGIS / VIYSDGQRNFYGDDVK / GRVADTFDS the result was no signal (0 of 6 replicates). With GFDLNSYGIS / VIYSDGRRTAYGDSVK / GRAAGTFHS the result was 1.3 nM (6 of 6 replicates). For GFNLNEYGIS / VIYADGRRTFYADSVK / GHAAGTFDV, the assay gave 560 pM (6 of 6 replicates). With GFNLNSYGIS / VIYSDGRRTFYGDDVK / GRLAGTFDS the result was 32 nM (5 of 6 replicates). Variant GFAINSYGIS / VIYSDGRRTFYGDSVK / GRAAGTFDT showed no signal (0 of 6 replicates). Variant GFDLNSYGIS / VIYSDGRRTFYGDGVK / GKTAGTFDS showed no signal (0 of 6 replicates). For GFELNSYGIS / VIYSDGRRTFYGDSVK / GQAAVTFDS, the assay gave no signal (0 of 6 replicates). Variant GFSLNSYGIS / VIYSDGRRTFYADSVK / GDVAGTFDS showed 1.2 nM (6 of 6 replicates). With GFQLNDYGIS / VIYSDGRRTFYGDSVK / GRSAGTFIS the result was no signal (0 of 6 replicates).

With GFTLNSYGIS / VIYADGRRTFYGDSVK / GKTAGTFDT the result was 550 pM (6 of 6 replicates). Variant GFWLNEYGIS / VIYSDGRRTFYGDSVK / GRTAGTFDC gave 12 nM (6 of 6 replicates). Variant GFSLNSYGIS / VIYSDGRRTAYGDSVK / GRAAGTFDQ showed 790 pM (6 of 6 replicates). For GFDLNSYGIS / VIYSDGRRTFYKDQVK / GQTAGTFDS, the assay gave 2.7 nM (6 of 6 replicates). Variant GFTLNSYGIS / VMYSDGRRCFYGDSVR / GRIPGTFDS showed no signal (0 of 6 replicates). Variant GFTLNDYGIS / VIYSDGRRMMYIDSVK / GRAAGTFDS showed 30 nM (6 of 6 replicates). Variant GFTLNSYGIS / VIYSDGRRTFYGQSVK / GRAAGTADS gave no signal (0 of 6 replicates). Variant GFTLNEYGIS / VIYSDGRRTFYIDSVK / GPAAGTFDS gave 85 nM (2 of 6 replicates). Variant GFMLNEYGIS / VIYSDGRRTFYHDSVK / GRAAGTFDS showed 2.1 nM (6 of 6 replicates).

For GFQLNDYGIS / VIYSDGRRTFYADHVK / GKAAGTFDS, the assay gave 1.1 nM (3 of 6 replicates). Variant GFTLNEYGIS / VIYSDGKRTFYGDSVK / GRAAGTFIF gave 89 nM (1 of 6 replicates). With GFELNSYGIS / VIYADGRRTFYGDSVK / GQAAGTFDL the result was 640 pM (6 of 6 replicates). Variant GFDLNKYGIS / VIYSDGRRTFYGDSVK / GRAAGTFDS showed 1.2 nM (6 of 6 replicates). Variant GFDLNSYGIS / VIYSDGRRTFYIDSVK / GKVAGTFDS gave 1.7 nM (6 of 6 replicates). For GFELNSYGIS / VIYSDGRRTFYSDSVK / GTAAGTFDS, the assay gave 190 nM (1 of 6 replicates). For GFSLNSYGIS / VIYSDGRRTFYGDNVK / GQTAGTFDS, the assay gave 820 pM (6 of 6 replicates). With GFDLNEYGIS / VIYADGRRTFYADSVK / GTNAGTFDS the result was 1.0 nM (2 of 6 replicates). Variant GFDLNSYGIS / VIYSDGRRTFYGDSVK / GMQAGTFDA gave 10 nM (6 of 6 replicates).

Variant GFVLNDYGIS / VIYSDGRRTFYGDSVK / GKTAGTFDS showed 3.3 nM (6 of 6 replicates). Variant GFHLNSYGIS / VIYSDGRRTFYADNVK / GQTAGTFDS gave 6.5 nM (6 of 6 replicates). For GFDLNSYGIS / VIYSDGRRTFYGDRVK / GEAAGTFDS, the assay gave 3.7 nM (6 of 6 replicates). With GHTLNEYGIS / VIYSDGLRTFYIDSVK / GEAAGTFDV the result was 120 nM (5 of 6 replicates). With GFWLNEYGIS / VIYSDGRRTFYSDSVK / GRTAGTFDS the result was 2.9 nM (6 of 6 replicates). Variant GFTLNSYGSS / VIYSDGRRTFYLDSVK / GRAAGTFDS showed no signal (0 of 6 replicates).

The 5 strongest on average among those seen in every replicate, once more:

Variant GFTLNSYGIS / VIYADGRRTFYGDSVK / GKTAGTFDT showed 550 pM (6 of 6 replicates).
Variant GFNLNEYGIS / VIYADGRRTFYADSVK / GHAAGTFDV showed 560 pM (6 of 6 replicates).
Variant GFELNSYGIS / VIYADGRRTFYGDSVK / GQAAGTFDL showed 640 pM (6 of 6 replicates).
Variant GFSLNSYGIS / VIYSDGRRTAYGDSVK / GRAAGTFDQ showed 790 pM (6 of 6 replicates).
Variant GFSLNSYGIS / VIYSDGRRTFYGDNVK / GQTAGTFDS showed 820 pM (6 of 6 replicates).

The authors averaged sequences with at least three values out of six and counted those with two or fewer as poor binders.
The range of this assay differs from that of the first round, and the authors advise against merging the two.
Empty control strains, which show no peptide, gave a signal in 1% of pairings with all heavy chain designs; the median was 120 nM and 95% of these signals were weaker than 7.0 nM. No background was subtracted.